Measured values reported in PMC3422576 (Science translational medicine, 2010).

Test system: resistant tumor cells
Assay: Ex-vivo medulloblastoma proliferation assay
Assay type: cell-based, mouse
Settings: cells freshly isolated from resistant tumors

Q: CC1=C2C[C@H]3[C@@H](CC=C4C[C@@H](O)CC[C@@]43C)[C@@H]2CC[C@]12O[C@@H]1C[C@H](C)CN[C@H]1[C@H]2C [cyclopamine] was tested. Which “growth of resistant tumor cells upon exposure” value did it give?
A: largely unaffected
